This data set in a line: physchem. The settings on record: pH 7.4, aqueous buffer.

Molecules are shown by their SMILES. ≈ marks a conversion by molar mass, not a printed value.

For orientation: solubility means the concentration that dissolves in the medium under given conditions. Lower therefore signals little dissolved substance. `Cc1nc2n(c(=O)c1CCN1CCC(c3noc4cc(F)ccc34)CC1)CCCC2` [risperidone] had a solubility of 220 µg/mL (≈ 536 µM).

For the origin of these results see US9943484B2, “Preparation of polylactide-polyglycolide microparticles having a sigmoidal release profile” (PHARMATHEN S.A., priority 2013, dated 2018).
